Measurements reported in paper PMC7949145 (The Journal of Biological Chemistry, 2021).

Protein sequences, listed by entry. Tags and fused reporters are not part of them. Residues count along the entry.
UniProt G7CES0, 29-471 N154A: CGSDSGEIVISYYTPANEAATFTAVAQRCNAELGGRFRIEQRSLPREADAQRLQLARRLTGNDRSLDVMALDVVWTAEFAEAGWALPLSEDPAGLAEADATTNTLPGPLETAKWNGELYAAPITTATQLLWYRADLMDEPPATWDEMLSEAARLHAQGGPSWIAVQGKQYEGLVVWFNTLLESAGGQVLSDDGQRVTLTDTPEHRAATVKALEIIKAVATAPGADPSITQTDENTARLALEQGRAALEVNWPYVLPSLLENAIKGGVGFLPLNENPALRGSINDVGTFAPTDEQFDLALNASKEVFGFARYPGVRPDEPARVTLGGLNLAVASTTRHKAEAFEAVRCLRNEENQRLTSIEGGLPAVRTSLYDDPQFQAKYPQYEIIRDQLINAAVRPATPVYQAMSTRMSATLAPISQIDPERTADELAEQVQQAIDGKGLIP
UniProt G7CES0, 29-471 E46A: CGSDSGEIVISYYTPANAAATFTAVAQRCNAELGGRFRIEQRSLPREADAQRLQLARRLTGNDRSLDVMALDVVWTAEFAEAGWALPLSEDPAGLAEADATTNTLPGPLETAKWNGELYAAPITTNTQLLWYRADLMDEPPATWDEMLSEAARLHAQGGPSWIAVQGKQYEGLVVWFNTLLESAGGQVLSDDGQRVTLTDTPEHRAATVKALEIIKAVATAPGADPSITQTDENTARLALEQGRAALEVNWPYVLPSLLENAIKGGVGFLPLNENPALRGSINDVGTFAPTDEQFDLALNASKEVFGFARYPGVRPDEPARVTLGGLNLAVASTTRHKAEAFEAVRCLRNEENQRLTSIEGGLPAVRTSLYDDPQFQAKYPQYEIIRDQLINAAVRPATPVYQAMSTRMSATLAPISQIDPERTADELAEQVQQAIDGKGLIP

Assays:
[1] = target: Mtr LpqY Asn134Ala (Mycolicibacterium thermoresistibile, UniProt G7CES0, N154A); assay: biochemical; format: binding, Mycobacterium thermoresistible
[2] = target: Mtr LpqY Glu26Ala (Mycolicibacterium thermoresistibile, UniProt G7CES0, E46A); assay: biochemical; format: binding, Mycobacterium thermoresistible

OC[C@H]1O[C@H](O[C@H]2O[C@H](CO)[C@@H](O)[C@H](O)[C@H]2O)[C@H](O)[C@@H](O)[C@@H]1O [Trehalose, α-D-glucopyranosyl-α-D-glucopyranoside]
Kd [1]: 9.061 ± 0.0117 mM
Kd [2]: 0.234 ± 0.0093 mM
